The values that follow come from patent US20210120813A1, “INHIBITORS OF THE SHIKIMATE PATHWAY” (PEPTICOM LTD., priority 2018, published 2021).

Only a part of the results on these compounds is given; other tests are left out.

Assay [1] deals with Lolium multiflorum (LOLMU). Put plainly: Weed efficacy on petri dishes, germination and visual notation, LOLMU. Type of assay: in vivo. The conditions noted are these: 10 DAT; for LOLMU Visual notation Mean: scale 0 = as control to 100.
The test system of assay [2] is EPSPS (TIPS mutant) from common wheat. Put plainly: E. coli AB2829 growth rescue screen with EPSPS TIPS mutant (OD600). In kind it is cell-based, Triticum Aestivum.
Assay [3] has as its system Chenopodium album (CHEAL). Put plainly: Weed efficacy on petri dishes, germination and visual notation, CHEAL. Type of assay: in vivo. The following applies: 10 DAT; for CHEAL Visual notation Mean: scale 0 = as control to 100.

For the molecule `COc1ccc([N+](=O)[O-])cc1[N+](=O)[O-]`, the “LOLMU Germination (%) Mean” value in assay [1] (50 mg a.i./L) is 95.6%; in assay [1] (500 mg a.i./L) it was 85.9%; in assay [1] (5000 mg a.i./L), 0.0%. Moreover, the “LOLMU Visual notation Mean” value in assay [1] (50 mg a.i./L) came to 3.8; in assay [1] (500 mg a.i./L) it was 76.3; in assay [1] (5000 mg a.i./L) it was 100.0. The “ability of rescued AB2829 bacteria cells (EPSPS TIPS) to grow on M9 minimal media” value in assay [2] (20 mM, 40 h, 0.1% rhamnose) is given as “completely abolish”. Further, the “% bacterial growth relative to rescue with mutant EPSPS at 20 mM, 40 h post application” value in assay [2] (40 h post application, OD600, EPSPS null = 0%, Rescue = 100%) is listed as −256%. Besides, the “CHEAL Germination (%) Mean” value in assay [3] (50 mg a.i./L) turned out to be 73.8%; in assay [3] (500 mg a.i./L) it was 63.6%; in assay [3] (5000 mg a.i./L), 18.9%. The “CHEAL Visual notation Mean” value is given as 41.7 in assay [3] (50 mg a.i./L), 53.1 in assay [3] (500 mg a.i./L) and 94.3 in assay [3] (5000 mg a.i./L).
